Data as given in patent publication US12153062B2, “Method for estimating physical property of aqueous sample” (Kao Corporation, priority 2018, dated 2024).

Experiments:
[1] = Amount of phase-changing probe 2-EHDG required until phase structure changes (Wm phase to Om phase + W phase); liquid physical property index read from calibration curve; assay type: physicochemical; conditions: surfactant 100 mmol/kg, solvent BDG 5 mass %, C16 isoparaffin 2 g per 100 g, no inorganic salt; for Quantitative value (g) of phase-changing probe (2-EHDG): 25° C., calibration curve 10
[2] = as above; assay type: physicochemical; conditions: 100 mmol/kg; oil component Cyclohexane; calibration curve 7
Experimental: Using the following components, precursor samples and standard samples for preparing calibration curves were prepared, and using any of the following phase-changing probes, an amount of the phase-changing probe required until a phase structure of a standard sample changed was quantified for each of a plurality of surfactants (G). The calibration curves were prepared from the plurality of quantitative values obtained. • Surfactant (G): a plurality of polyoxyethylene lauryl ethers with different average numbers of added moles of the ethylene oxide • Oil component: an isoparaffin with an average number of carbons of 16 (hereinafter, referred to as C16 isoparaffin) • Phase-changing probe: 2-ethylhexyl diglycol or butyldiglycol […]
The amount of the oil component added per 100 g of each precursor sample was determined to be 4 g by assigning 50 to X in the aforementioned formula (I).
For this standard sample, 2-ethylhexyl diglycol (hereinafter, sometimes also referred to as 2-EHDG) was used as the phase-changing probe, and an amount of the phase-changing probe required until a phase structure of the standard sample changed from a micellar solution phase (Wm phase) to a mixed system of a reversed micellar oil solution phase (Om phase) and a water phase (W phase) was taken as the quantitative value. […]

Molecule | Quantitative value (g) of phase-changing probe (2-EHDG) [1] | Solution physical property index (corresponding HLB) from calibration curve 10 [1] | Solution physical property index (corresponding HLB) from calibration curve [2]
CCCCCCCCCCCC[N+](C)(C)[O-] [Lauryl dimethylamine oxide] | 5.04 g | 11.73 | –
CCCCCCCCCCCC[N+](C)(C)CC(O)CS(=O)(=O)[O-] (centres unmarked) [N-lauryl-N,N-dimethyl-N-(2-hydroxysulfopropyl)ammonium sulfobetaine] | – | – | 11.30
Sodium linear alkyl (main constituent: C12) benzene sulfonate | 19.56 g | 17.83 | –
